# Values quoted from earlier work in US20230149373A1, “USE OF BROMODOMAIN INHIBITORS FOR TREATMENT OF HUNTINGTON'S DISEASE” (RUMI SCIENTIFIC HOLDINGS, INC., priority 2020, published 2023).
# Protein sequences, listed by entry. Tags and fused reporters are not part of them.
# UniProt P25440, whole entry: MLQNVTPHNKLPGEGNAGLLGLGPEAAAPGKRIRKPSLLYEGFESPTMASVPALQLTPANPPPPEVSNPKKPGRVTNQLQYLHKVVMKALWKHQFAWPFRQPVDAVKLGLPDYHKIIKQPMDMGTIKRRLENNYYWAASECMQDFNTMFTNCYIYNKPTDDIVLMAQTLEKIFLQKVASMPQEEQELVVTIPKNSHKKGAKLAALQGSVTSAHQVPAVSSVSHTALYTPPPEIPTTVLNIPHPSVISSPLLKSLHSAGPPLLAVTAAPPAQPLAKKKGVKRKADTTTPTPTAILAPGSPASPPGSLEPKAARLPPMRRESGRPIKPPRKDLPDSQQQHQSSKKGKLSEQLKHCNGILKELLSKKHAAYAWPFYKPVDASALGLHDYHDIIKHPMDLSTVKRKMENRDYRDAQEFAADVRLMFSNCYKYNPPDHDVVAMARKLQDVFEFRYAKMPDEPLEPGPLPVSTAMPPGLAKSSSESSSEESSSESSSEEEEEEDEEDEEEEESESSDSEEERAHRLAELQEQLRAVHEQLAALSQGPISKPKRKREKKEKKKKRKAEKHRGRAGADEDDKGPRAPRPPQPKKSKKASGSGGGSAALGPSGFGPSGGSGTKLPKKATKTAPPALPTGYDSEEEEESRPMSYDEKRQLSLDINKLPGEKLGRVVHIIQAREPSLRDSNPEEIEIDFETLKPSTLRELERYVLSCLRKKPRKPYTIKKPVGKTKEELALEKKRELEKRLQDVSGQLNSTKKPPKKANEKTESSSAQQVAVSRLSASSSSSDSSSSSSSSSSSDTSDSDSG
# Target: BRD2 (Homo sapiens, UniProt P25440)
# Conditions: described in the literature; cited from earlier work
compound,measurement,value
CCOC(=O)Nc1cc(-c2ccc(C)c(NS(C)(=O)=O)c2)nn2c(C)nnc12 [Bromosporine],IC50,410 nM
